Results: publication PMC3490489 (Clinical cancer research : an official journal of the …, 2012)

Type: in vivo, human

Mean sorafenib glucuronide metabolite ratio (all patients): 0.30±0.19 and ~ 0.30 | CV% of sorafenib glucuronide metabolite ratio (boys older than 10 years): 42% | CV% of sorafenib glucuronide metabolite ratio (boys ≤ 10 years): 71% | CV% of sorafenib glucuronide metabolite ratio (girls older than 10 years): 28% | CV% of sorafenib glucuronide metabolite ratio (girls ≤ 10 years): 70%
Substance: sorafenib glucuronide

Several values for one entry are separate records, joined by “and”; a condition that tells them apart may be missing. Equal entries are not always repeated. Where two headings read alike, the source gives them in different places.
